# Screens deposited in PubChem by Broad Institute.
# Rows were chosen to be rich in hits. Some 1.3% of all compounds tested hit in one or more screens of this group.
# F508del corr: CFTR F508del correction in bronchial cells; CFBE cells, YFP halide quenching; stimulated with forskolin plus potentiator P3; % fluorescence drop versus neutral controls; activity (quench increase), % at 7.58 µM; 350,000 compounds, 0.36% hits; AID 720511;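 active means mean added fluorescence quench of at least 8% versus neutral control, with both replicates also reaching 8%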;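 further: cells transiently co-express mutant CFTR-F508del with the halide-sensitive YFP; corrector assay measuring rescue of mutant channel to the surface after 24 h compound exposure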
# miR-122 sensor: miR-122 inhibition in Huh7 cells | AID 602342 | activation (reporter increase), % at 12.5 µM | 340,000 compounds, 0.3% hits | Huh7 miR-122 Renilla luciferase sensor, 48 h; neutral wells = 0, positive control = 100;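 active means mean replicate activation score at least 90 and every replicate individually at or above 90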;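 further: higher luciferase means less miR-122 activity so hits act as miR-122 inhibitors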
# Yeast UUG start: alters start codon recognition fidelity in yeast; S. cerevisiae UUG-firefly luciferase reporter, luminescence/redox ratio; activity score, % at 18.7 µM; actives 0.13% (n = 350,000);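 active means replicate mean at a twofold rise or more, about +100% in these data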;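 further: firefly luciferase made from a UUG start codon reports start codon fidelity; reporter light over untreated wells divided by growth signal over untreated wells; some hits fall short of that in this replicate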
# EWS-Fli inh: blocks EWS/Fli oncoprotein-driven transcription | A673 NR0B1-luciferase reporter, viability-normalised | inhibition, % at 12.6 µM | 350,000 compounds, 0.67% hits;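 active means mean inhibition of at least 50% after viability correction, with every replicate also passing that limit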;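 further: firefly luciferase signal divided by Alamar Blue viability fluorescence both relative to DMSO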
# LGR2 antag: Drosophila LGR2 receptor signaling inhibition; HEK293 LGR2, CRE-luciferase, bursicon-stimulated, 4 h; inhibition, % at 9.99 µM; 380,000 compounds, 0.35% hits;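 active means drop in luminescence signal, shown as inhibition above about 50% in the replicate tests, limit read from the data, passing the limit was not always enough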;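 further: agonist challenge used bursicon conditioned medium at about half maximal strength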
# PglD inh: blocks C. jejuni PglD acetyltransferase activity. AID 602405. inhibition, % at 12.5 µM. 360,000 compounds, 0.098% hits. purified PglD enzyme, DTNB colorimetric CoA detection; in the data active means inhibition above about 16%, passing the limit was not always enough
# * = called active by the depositor; / = not tested or not shown; [ ] = another dose, or the depositor's remark.
# Start of the data: the first 4 records, ahead of the listing:
Structure | EWS-Fli inh | F508del corr | LGR2 antag | Yeast UUG start | miR-122 sensor | PglD inh
C[C@@H]1CN([C@@H](C)CO)C(=O)c2cccc(NC(=O)Nc3ccccc3)c2O[C@@H]1CN(C)Cc1ccc(C(=O)Nc2ccccc2N)cc1 | 49 | 1 | -9 | 5 | 140*[16.7 µM] | -3
C[C@@H]1CN([C@@H](C)CO)C(=O)c2cccc(NC(=O)C3CC3)c2O[C@H]1CN(C)Cc1ccc(C(=O)Nc2ccccc2N)cc1 | 18 | -1 | 18 | 4 | 1[16.7 µM] | -6
Cc1[nH]n(-c2ccccc2)c(=O)c1C(=O)c1ccc(Cl)cc1 | 0 | 0 | -12 | -15 | 1 | 0
C[C@H](CO)N1C[C@H](C)[C@@H](CN(C)Cc2ccc3c(c2)OCO3)Oc2c(NC(=O)Nc3ccccc3)cccc2C1=O | -2 | -1 | 16 | 2 | 95*[16.7 µM] | 3

# The listing, repeating the preview:
Structure | EWS-Fli inh | F508del corr | LGR2 antag | Yeast UUG start | miR-122 sensor | PglD inh
C[C@@H]1CN([C@@H](C)CO)C(=O)c2cccc(NC(=O)Nc3ccccc3)c2O[C@@H]1CN(C)Cc1ccc(C(=O)Nc2ccccc2N)cc1 | 49 | 1 | -9 | 5 | 140*[16.7 µM] | -3
C[C@@H]1CN([C@@H](C)CO)C(=O)c2cccc(NC(=O)C3CC3)c2O[C@H]1CN(C)Cc1ccc(C(=O)Nc2ccccc2N)cc1 | 18 | -1 | 18 | 4 | 1[16.7 µM] | -6
Cc1[nH]n(-c2ccccc2)c(=O)c1C(=O)c1ccc(Cl)cc1 | 0 | 0 | -12 | -15 | 1 | 0
C[C@H](CO)N1C[C@H](C)[C@@H](CN(C)Cc2ccc3c(c2)OCO3)Oc2c(NC(=O)Nc3ccccc3)cccc2C1=O | -2 | -1 | 16 | 2 | 95*[16.7 µM] | 3
C[C@@H]1CN([C@@H](C)CO)C(=O)c2cccc(NC(=O)Nc3ccccc3)c2O[C@@H]1CN(C)Cc1ccc2c(c1)OCO2 | -9 | 0 | 23 | 0 | 0[16.7 µM] | 5
CC(=O)c1ccc(NC(=O)CN2c3cccc4cccc(c34)S2(=O)=O)cc1 | -2 | 0 | -17 | / | -4 | /
CC(=O)Nc1cccc(NC(=O)CN2c3cccc4cccc(c34)S2(=O)=O)c1 | -1 | 24* | 7 | -16 | -5 | -4
CCCOc1ccc(F)cc1-c1cc(C(=O)Nc2cc(OC)ccc2OC)[nH]n1 | 8 | -1 | 16 | -16 | -4 | 2
O=C(C[C@@H]1CC[C@@H]2[C@H](COC[C@H](O)CN2C(=O)c2cnccn2)O1)NCc1ccc(Cl)cc1 | -10 | 3 | -11 | 0 | 0[16.7 µM] | -1
COc1ccccc1C(=O)NC(=S)Nc1cccnc1Cl | 57* | -1 | 84* | -73 | 6 | -2
Cc1ccc(C(=O)NC(=S)Nc2cccnc2Cl)cc1 | -39 | -1 | 26 | -28 | -2 | -3
CCn1c(SCC(=O)NNC(=O)c2ccc(C)cc2)nnc1C(C)C | 4 | -1 | 8 | / | -10 | /
N=c1n(CC(=O)c2ccc(Br)s2)c2ccccc2n1Cc1ccccc1 | 60* | -8 | 32 | 12 | -35 | -2
COc1cc2c(cc1OC)CN(CC(=O)Nc1ccc3c(c1)OC(F)(F)O3)CC2 | / | / | / | 16 | 4 | 6
FC(F)Oc1ccc(C2=Nn3c(nnc3-c3ccccc3Cl)SC2)cc1OCC1CC1 | 18 | 5 | -13 | -18 | -3 | -6
COc1ccc(C2=Nn3c(nnc3-c3ccccc3F)SC2)cc1OCC1CC1 | 56* | 1 | -2 | -38 | -14 | -1
CCOC(=O)N1CCN(c2c(NCc3ccc(F)cc3)c(=O)c2=O)CC1 | 57* | 2 | -12 | / | / | /
CCOC(=O)N1CCN(c2c(NCc3ccc(Cl)cc3)c(=O)c2=O)CC1 | 52* | 5 | -4 | -9 | 12 | 3
O=Cc1s/c(=N\S(=O)(=O)c2ccccc2)n(CCCCl)c1Cl | 55* | -5 | 72* | / | / | /
CC(=O)N(C)C[C@H]1Oc2ncc(C#Cc3cccc(F)c3)cc2C(=O)N([C@H](C)CO)C[C@H]1C | -4 | 2 | 18 | 16 | 3[16.7 µM] | -1

# Carrying on:
Structure | EWS-Fli inh | F508del corr | LGR2 antag | Yeast UUG start | miR-122 sensor | PglD inh
Cc1ccc(-n2[nH]c(=O)c(-c3ccccn3)c2C)cc1 | 74* | -3 | 94* | / | 9 | /
C=CCn1c(-c2cccn(Cc3ccc(Cl)cc3Cl)c2=O)n[nH]c1=S | / | / | / | -28 | -10 | 0
O=C(NC(NC(=S)Nc1c(Cl)cccc1Cl)C(Cl)(Cl)Cl)c1cccc([N+](=O)[O-])c1 (configuration not stated) | / | / | 11 | -7 | 174* | 8
COc1ccc(S(=O)(=O)N(C)C[C@H]2OCc3ccccc3-c3ccccc3C(=O)N([C@@H](C)CO)C[C@@H]2C)cc1 | -2 | 1 | 21 | 5 | / | 2
COc1ccc(Nc2nc(N3CCCCC3)c3ccccc3n2)cc1 | / | / | / | -14 | 1 | 3
Oc1ccc(Nc2nc(N3CCCC3)c3ccccc3n2)cc1 | / | / | 76* | -1 | 3 | 0
Cc1nc(C(F)(F)F)ccc1C(=O)Nc1ccc2ccccc2n1 | -53 | -4 | -17 | 0 | -5 | 6
CN(C)CCCCOc1ccccc1F | 10 | -1 | 5 | / | / | /
O=S(=O)(/C=C/c1ccccc1)N1CCc2ccccc2C1 | 5 | 0 | 1 | -22 | / | -1
O=C1C=CCCN1S(=O)(=O)/C=C/c1ccccc1 | 62* | -5 | / | / | / | /
COc1ccc2c(c1)c(CC(=O)OCC(=O)O)c(C)n2C(=O)c1ccc(Cl)cc1 | 5 | 8.5* | -20 | -38 | -1 | 1
COc1ccc2c(c1)c(CC(=O)OCC(N)=O)c(C)n2C(=O)c1ccc(Cl)cc1 | 4 | 0 | 5 | -10 | -7 | 2
O=C1NC(c2cccc3ccccc23)Nc2ccccc21 (configuration not stated) | 9 | 4 | -34 | / | 150* | /
O=C1NC(c2ccccc2Cl)Nc2ccccc21 (configuration not stated) | / | / | / | -11 | 12 | -2
CCC(=O)Nc1ccc2c(c1)C(=O)N(C)[C@H]1CC[C@@H](CC(=O)NCc3ccc(OC)cc3)O[C@@H]1CO2 | 1 | -1 | -4 | 2 | 0[16.7 µM] | -2
CCCc1nc(SC2CCCC2)c2c(=O)n(C)c(=O)n(C)c2n1 | 10 | 8.1* | 9 | 1 | / | -2
CCCc1nc(SCC(=O)N2CCC(C)CC2)c2c(=O)n(C)c(=O)n(C)c2n1 | -10 | -1 | -1 | / | -4 | /
CN(C)C(=O)c1cccc(-c2ccc3c(c2)[C@@H]2[C@@H](CCN2S(=O)(=O)c2cn(C)cn2)[C@@H](CO)N3)c1 | 1 | 1 | 1 | -7 | -11[16.7 µM] | 3
O=C(c1ccc(S(=O)(=O)N2CCCCC2)cc1)N1CCN(CCN2C(=O)c3cccc4cccc(c34)C2=O)CC1 | 0 | -2 | 77* | / | / | /
CC1CCN(C(=O)c2ccc(S(=O)(=O)N3CCCC3)cc2)CC1 | 2 | 9.3* | 9 | 2 | 3 | -2

# Single records (already shown). Order of screens: EWS-Fli inh | F508del corr | LGR2 antag | Yeast UUG start | miR-122 sensor | PglD inh
# Shown for `Cc1[nH]n(-c2ccccc2)c(=O)c1C(=O)c1ccc(Cl)cc1` = 0 | 0 | -12 | -15 | 1 | 0
# Shown for `CCCOc1ccc(F)cc1-c1cc(C(=O)Nc2cc(OC)ccc2OC)[nH]n1` = 8 | -1 | 16 | -16 | -4 | 2

# Remaining list, next part
Structure | EWS-Fli inh | F508del corr | LGR2 antag | Yeast UUG start | miR-122 sensor | PglD inh
CC1CCN(C(=O)c2ccc(S(=O)(=O)N3CCCCCC3)cc2)CC1 | -1 | -3 | -9 | / | / | /
Cc1ccc(C(=O)NNC(=O)c2ccc(S(=O)(=O)N3CCCCC3)cc2)cc1 | 6 | 9.8* | / | -8 | 10 | 0
O=[N+]([O-])c1cccc(COc2ccc(CN3CCCCC3)cc2)c1 | -42 | 1 | -70 | -2 | -4 | 0
CCc1ccc(/C=C/C(=O)C2C(=O)c3ccccc3C2=O)cc1 | / | / | 62* | / | / | /
CCOCCCNC(=O)c1cn2c3c(ccc(Cl)c3c1=O)OC(C)C2 (configuration not stated) | 1 | 2 | 16 | -10 | / | 9
Cc1cc(N/N=C/c2ccc(O)c(C)c2O)nc(-c2ccccc2O)n1 | / | / | 37 | 6 | 101* | -10
C/C(=N\Nc1cc(C)nc(-c2ccccc2O)n1)c1ccccc1 | -35 | / | 2 | / | 5 | /
N#C[C@H]1[C@@H](c2ccc(C3=CCCCC3)cc2)[C@H](CO)N1C(=O)c1ccccn1 | -8 | -4 | 88* | 53 | / | -2
